In PubChem BioAssay (NCI):
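Dose response: 5 concentrations. Exposure: 48 h. Format: 96-well plates. Endpoint: linear interpolation; highest concentration if not reached. GI50 = concentration required for 50% inhibition of growth.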

Tests used:
Assay in all cases: DTP human tumour cell line panel, 48 h; in the data active = GI50 below about 0.43 µM; inactive = the rest
[1] = tested on: HOP-62 NSCLC
[2] = tested on: DU-145 prostate
[3] = tested on: ACHN renal
[4] = tested on: MALME-3M melanoma
[5] = tested on: SK-OV-3 ovarian
[6] = tested on: NCI-H322M lung
[7] = tested on: MOLT-4 leukemia
[8] = tested on: MCF7 breast
[9] = tested on: PC-3 prostate
[10] = tested on: A549 NSCLC
[11] = tested on: RXF 393 renal
[12] = tested on: CCRF-CEM leukemia
[13] = tested on: SNB-75 CNS
[14] = tested on: SF-295 CNS
[15] = tested on: MDA-MB-435
[16] = tested on: OVCAR-5 ovarian
[17] = tested on: UACC-257 melanoma
[18] = tested on: COLO 205 colon
[19] = tested on: MDA-MB-231 breast
[20] = tested on: MDA-N
[21] = tested on: HCT-116 colon
[22] = tested on: SN12C renal
[23] = tested on: SK-MEL-5 melanoma
[24] = tested on: BT-549 breast
[25] = tested on: UO-31 renal
[26] = tested on: OVCAR-3 ovarian
[27] = tested on: TK-10 renal
[28] = tested on: A498 renal
[29] = tested on: SF-539 CNS
[30] = tested on: SW-620 colon
[31] = tested on: NCI/ADR-RES ovarian
[32] = tested on: HL-60(TB) leukemia
[33] = tested on: OVCAR-8 ovarian
[34] = tested on: NCI-H23 lung
[35] = tested on: 786-0 renal
[36] = tested on: HCT-15 colon
[37] = tested on: OVCAR-4 ovarian
[38] = tested on: CAKI-1 renal
[39] = tested on: RPMI-8226 leukemia
[40] = tested on: HS 578T breast
[41] = tested on: T-47D breast
[42] = tested on: HOP-92 NSCLC
[43] = tested on: SF-268 CNS
[44] = tested on: HT29 colon
[45] = tested on: IGROV1 ovarian
[46] = tested on: KM12 colon
[47] = tested on: NCI-H460 lung
[48] = tested on: UACC-62 melanoma
[49] = tested on: K-562 leukemia
[50] = tested on: EKVX NSCLC
[51] = tested on: U251 CNS
[52] = tested on: HCC-2998 colon
[53] = tested on: SR leukemia
[54] = tested on: SNB-19 CNS
[55] = tested on: LOX IMVI melanoma
[56] = tested on: NCI-H226 lung
[57] = tested on: M14 melanoma
[58] = tested on: NCI-H522 lung
[59] = tested on: SK-MEL-2 melanoma

Measured: GI50

CN(C(=O)COc1cc(Cl)c(Cl)cc1Cl)[C@@H]1CCCC[C@@H]1N1CCCC1
inactive: [1] > 100 µM | [2] > 100 µM | [3] 58.1 µM | [4] > 100 µM | [5] > 100 µM | [6] > 100 µM | [7] > 100 µM | [8] 30.2 µM | [9] 42.3 µM | [10] 50.2 µM | [11] 53.2 µM | [12] 44.9 µM | [13] > 100 µM | [14] 19.4 µM | [15] 22.7 µM | [16] 33 µM | [17] 23.6 µM | [18] 23 µM | [19] 38.3 µM | [20] 46.5 µM | [21] 45.2 µM | [22] > 100 µM | [23] 17.1 µM | [24] 52.9 µM | [25] 35.8 µM | [26] 47.4 µM | [27] 44.7 µM | [28] 18 µM | [29] 61.5 µM | [30] 80.7 µM | [31] 95.7 µM | [32] 28.3 µM | [33] > 100 µM | [34] 57.7 µM | [35] 37.4 µM | [36] 43.1 µM | [37] 39.9 µM | [38] 85.3 µM | [39] 32 µM | [40] 72.8 µM | [41] 37.5 µM | [42] > 100 µM | [43] 97.3 µM | [44] 26 µM | [45] 77.4 µM | [46] 56.2 µM | [47] 33.3 µM | [48] 22.9 µM | [49] 32.3 µM | [50] > 100 µM | [51] 54 µM | [52] 23.3 µM | [53] 42.4 µM | [54] 88.6 µM | [55] 33.7 µM | [56] 81.7 µM | [57] 16.9 µM | [58] 53.1 µM | [59] 22.3 µM
